The target of experiment [1] is recombinant human Mcl-1 (residues 171-327) / Bim interaction (Homo sapiens (Human), UniProt Q07820). The experiment is described as follows: biochemical. The format is binding. The settings on record: read-out: Mcl-1 HTRF IC50.
For experiment [2], the system named is human multiple myeloma cell line, OPM-2. The experiment is described as follows: Cell viability assay (OPM-2 10 FBS), CellTiter-Glo. The format is cell-based. The settings on record: OPM-2, 16 h, read-out: OPM-2 10% FBS IC50 IP, OPM-2 cells, 10% FBS, 16 h, CellTiter-Glo. Here is the method:
Cell viability assay (OPM-2 10 FBS)
The human multiple myeloma cell line, OPM-2, was cultured in complete growth medium containing RPMI 1640 and 10% fetal bovine serum (FBS). Cells were seeded into 384-well plates at 3000 cells/well density in complete growth medium containing 10% FBS, and incubated for 16 h with serially diluted test compounds in a 37° C. incubator with 5% CO2. Cell viability was tested using CellTiter-Glo® assay (Promega, Madison, Wis.) according to the manufacturer recommendations. Luminescence was determined using an EnVision® Multilabel plate reader 25 min after the addition of detection reagent. IC50 values were then calculated with Xlfit using a logistical 4-parameter fit model in GraphPad Prism (GraphPad Software, San Diego, Calif.) or in Genedata Screener® (Genedata, Basel, Switzerland).
(In general: ATP-based viability assays read luminescence as a measure of living cells.)

Protein sequences, listed by entry. Tags and fused reporters are not part of them. Residues count along the entry.
UniProt Q07820, 171-327: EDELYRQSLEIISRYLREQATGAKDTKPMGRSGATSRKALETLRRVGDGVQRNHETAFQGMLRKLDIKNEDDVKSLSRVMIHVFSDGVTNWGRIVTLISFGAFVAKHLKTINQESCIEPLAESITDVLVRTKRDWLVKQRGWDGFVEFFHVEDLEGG

Where two headings read alike, the source gives them in different places.

With `CO[C@@]1(c2cccnn2)/C=C/C[C@H](C)[C@@H](C)S(=O)(=O)NC(=O)c2ccc3c(c2)N(C[C@@H]2CC[C@H]21)C[C@@]1(CCCc2cc(Cl)ccc21)CO3` [Example 100004, (1 S,3′R,6′R,7′S,8′E,11′S, 12′R)-6-chloro-7′-methoxy-11′,12′-dimethyl-7′-(3-pyridazinyl)-3,4-dihydro-2H,15′H-spiro[naphthalene-1,22′-[20]oxa[13]thia[1,14]diazatetracyclo[14.7.2.0-3,6˜.0˜19,24˜]pentacosa[8,16,18,24]tetraen]-15′-one 13′,13′-dioxide], the half-maximal inhibitory concentration (IC50) (as a rule, the concentration needed to halve the response being measured) in experiment [1] (TR-FRET, Mcl-1(171-327) / biotin-Bim (51-76)) was 0.072 nM; in experiment [2], 120 nM.

Take “(1 S,3′R,6′R,7′R,8′E,11′S,12′R)-6-chloro-7′-((9aS)-hexahydropyrazino[2,1-c][1,4]oxazin-8(1H)-ylmethyl)-7′-methoxy-12′-(2-methoxyethyl)-11′-methyl-3,4-dihydro-2H, 15′H-spiro[naphthalene-1,22′-[20]oxa[13]thia[1,14]diazatetracyclo[14.7.2.0-3,6˜.0˜19,24˜]pentacosa[8,16,18,24]tetraen]-15′-one 13′,13′-dioxide [Example 11]”: in experiment [1] (0.1 nM Mcl-1(171-327), 0.05 nM biotin-Bim (51-76)), the IC50 amounted to 0.098 nM.

(Values after US10821115B2, “Compounds that inhibit Mcl-1 protein” (priority 2017, dated 2020).)
